From PubChem BioAssay AID504662 (National Center for Advancing Translational Sciences (NCATS), 2011)
The other results are listed elsewhere or left out. Activity calls are given as the source filed them.

Chains of the proteins cited; added tags and fusions are not shown. Lines headed by an entry give the natural chain unless they say otherwise; changes in a name come on top.
UniProt P54132: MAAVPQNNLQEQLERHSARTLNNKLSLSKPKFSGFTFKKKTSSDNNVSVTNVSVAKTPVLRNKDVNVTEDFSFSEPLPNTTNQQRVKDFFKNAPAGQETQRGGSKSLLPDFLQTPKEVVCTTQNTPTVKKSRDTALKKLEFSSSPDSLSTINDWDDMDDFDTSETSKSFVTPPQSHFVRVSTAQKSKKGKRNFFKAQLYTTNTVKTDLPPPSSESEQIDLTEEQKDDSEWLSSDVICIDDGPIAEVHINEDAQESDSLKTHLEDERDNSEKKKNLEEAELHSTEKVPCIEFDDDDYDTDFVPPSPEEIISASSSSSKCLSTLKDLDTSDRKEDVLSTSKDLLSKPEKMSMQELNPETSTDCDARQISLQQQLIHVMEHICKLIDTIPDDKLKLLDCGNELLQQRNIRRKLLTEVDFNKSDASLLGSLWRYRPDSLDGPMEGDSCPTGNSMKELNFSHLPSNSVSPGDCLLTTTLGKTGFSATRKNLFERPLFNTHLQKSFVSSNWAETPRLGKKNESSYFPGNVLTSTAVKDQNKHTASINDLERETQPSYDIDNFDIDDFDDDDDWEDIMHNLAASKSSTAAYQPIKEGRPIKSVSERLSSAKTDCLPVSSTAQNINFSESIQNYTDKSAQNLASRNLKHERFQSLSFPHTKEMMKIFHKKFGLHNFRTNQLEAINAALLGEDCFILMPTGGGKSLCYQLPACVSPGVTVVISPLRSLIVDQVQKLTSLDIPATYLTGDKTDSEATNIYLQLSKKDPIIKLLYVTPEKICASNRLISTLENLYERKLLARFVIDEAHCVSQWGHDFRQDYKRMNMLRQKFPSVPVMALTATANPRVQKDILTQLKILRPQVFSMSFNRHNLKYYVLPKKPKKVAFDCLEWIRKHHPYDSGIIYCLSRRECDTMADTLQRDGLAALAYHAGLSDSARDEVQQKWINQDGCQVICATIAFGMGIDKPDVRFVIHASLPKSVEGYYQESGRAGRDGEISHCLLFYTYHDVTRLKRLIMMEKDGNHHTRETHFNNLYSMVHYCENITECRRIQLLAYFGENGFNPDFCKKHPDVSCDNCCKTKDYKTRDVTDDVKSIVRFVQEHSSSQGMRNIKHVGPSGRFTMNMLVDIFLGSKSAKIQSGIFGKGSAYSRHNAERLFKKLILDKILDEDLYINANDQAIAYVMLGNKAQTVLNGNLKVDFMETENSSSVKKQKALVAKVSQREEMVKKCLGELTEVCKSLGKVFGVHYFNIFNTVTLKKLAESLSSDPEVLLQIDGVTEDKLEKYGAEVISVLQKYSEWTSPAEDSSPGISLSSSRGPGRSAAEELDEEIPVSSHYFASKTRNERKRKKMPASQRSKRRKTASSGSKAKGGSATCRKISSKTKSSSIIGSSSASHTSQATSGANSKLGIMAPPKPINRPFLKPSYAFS

Target: RecQ-like DNA helicase BLM (Homo sapiens) (UniProt P54132)
Test: Inhibitors of BLM Helicase: DNA Unwinding Measured by Gel Electrophoresis - BLM Helicase Activity
Settings: Purified BLM

O=C(Nc1ccc(F)c(C(F)(F)F)c1)Nc1nnc(-c2ccncc2)s1
Potency: active: 5 µM
